From PMC6962383

How the values were obtained:
Bovine Trypsin (bovine) [1] = conditions: natural protein
Bovine Trypsin (bovine) [2] = conditions: natural protein; remark: listed apart in the source
[3] = target: bovine trypsin (Bos taurus) (UniProt P00760); test: ddG of purified BPTI mutants binding bovine trypsin, mostly from literature; conditions: cited from earlier work
[4] = target: bovine trypsin (Bos taurus) (UniProt P00760); test: yeast surface display with four-gate FACS sorting and deep sequencing, enrichment normalized to ddG with purified-protein data

| Substance | Ki (Bovine Trypsin (bovine) [1]) [nM] | Ki (Bovine Trypsin (bovine) [2]) [pM] | ddG [3] [kcal/mol] | ddG [4] [kcal/mol] |
| --- | --- | --- | --- | --- |
| BPTI mutant R39I, purified | 0.038 |  |  |  |
| BPTI mutant T11N, purified |  | 4 |  |  |
| K15N (from UniProt P00974) |  |  | 7.95 | 8.61 |
| K15Q (from UniProt P00974) |  |  | 9.27 | 8.15 |
| K15R (from UniProt P00974) |  |  | -0.77 | -1.44 |
| K15S (from UniProt P00974) |  |  | 7.64 | 8.76 |
| K15T (from UniProt P00974) |  |  | 10.5 | 9.61 |
| K15V (from UniProt P00974) |  |  | 11.6 | 10.3 |
| K15W (from UniProt P00974) |  |  | 8.57 | 8.74 |
| K15Y (from UniProt P00974) |  |  | 6.78 | 8.96 |
| R39I (from UniProt P00974) |  |  | 3.64 | 3.87 |
| T11N (from UniProt P00974) |  |  | 2.32 | 2.58 |
| Y35G (from UniProt P00974) |  |  | 3.29 | 3.38 |

Like-named read-outs stand apart in the source and are kept apart here.
